Reference: article PMC2275139 (Nucleic Acids Research, 2008)

Target: T1, IcaR (Staphylococcus epidermidis, UniProt Q5HKQ1)
T1 sequence (Q5HKQ1 1-185): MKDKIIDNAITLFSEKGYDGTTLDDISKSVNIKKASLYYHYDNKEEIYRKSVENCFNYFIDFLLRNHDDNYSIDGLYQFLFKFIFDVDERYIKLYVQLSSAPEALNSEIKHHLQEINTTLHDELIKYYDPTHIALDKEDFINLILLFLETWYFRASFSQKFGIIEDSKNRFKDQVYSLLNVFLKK
Assay: isothermal titration calorimetry
Assay type: binding

Kd: 12.5 µM
Structure (SMILES): [H]/N=C(/N)N[C@H]1[C@H](O)[C@@H](O)[C@H](O[C@@H]2O[C@@H](C)[C@](O)(C=O)[C@H]2O[C@@H]2O[C@@H](CO)[C@H](O)[C@@H](O)[C@@H]2NC)[C@@H](N/C(N)=N\[H])[C@@H]1O [Streptomycin]
